Tested on: rat liver microsomes (RLM)
Conditions: flumatinib metabolism in RLM

## CC(=O)N1CCN(c2ccc(OCC3COC(Cn4ccnc4)(c4ccc(Cl)cc4Cl)O3)cc2)CC1 (stereo not shown) [ketoconazole]
  α: 0.79
